One compound from ChEMBL document CHEMBL1137302 (J Med Chem, 2006) can be followed below.

For this assay, the system named is D(2) dopamine receptor (Mustela putorius furo). As to the kind of experiment: Agonist activity at ferret D2 receptor in HEK293 cells coexpressing Galphaqo5 by FLIPR relative to dopamine upto 10 uM.

The structures appear in SMILES notation. Activity calls are given as the source filed them. No cut-off for these calls is given here.

As for `Cc1cccc(NC(=O)CN2CCC(c3cccc[n+]3[O-])CC2)c1`, the outcome was inactive.
